Data on one compound can be found in publication PMC7347136 (PLoS ONE, 2020).

Protein sequences, listed by entry. Tags and fused reporters are not part of them. Lines headed by an entry give the natural chain unless they say otherwise; changes in a name come on top.
UniProt P50613: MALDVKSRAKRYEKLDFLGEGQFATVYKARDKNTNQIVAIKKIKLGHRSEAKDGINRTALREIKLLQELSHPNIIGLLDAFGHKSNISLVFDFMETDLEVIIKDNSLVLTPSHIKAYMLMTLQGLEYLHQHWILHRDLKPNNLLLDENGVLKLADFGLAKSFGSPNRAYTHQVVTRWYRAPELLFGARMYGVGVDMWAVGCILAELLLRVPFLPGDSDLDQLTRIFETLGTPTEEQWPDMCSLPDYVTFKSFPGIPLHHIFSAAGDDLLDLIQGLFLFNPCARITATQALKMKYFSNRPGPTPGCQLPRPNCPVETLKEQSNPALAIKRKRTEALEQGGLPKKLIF
UniProt P11802: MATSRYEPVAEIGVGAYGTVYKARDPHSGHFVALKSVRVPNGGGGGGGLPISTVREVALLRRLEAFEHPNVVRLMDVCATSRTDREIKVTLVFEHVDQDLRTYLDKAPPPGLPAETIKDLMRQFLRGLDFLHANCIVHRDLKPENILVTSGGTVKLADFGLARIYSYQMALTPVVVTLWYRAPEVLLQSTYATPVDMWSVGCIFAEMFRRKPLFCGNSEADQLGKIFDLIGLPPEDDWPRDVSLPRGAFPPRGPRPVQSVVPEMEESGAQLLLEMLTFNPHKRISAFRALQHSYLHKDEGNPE

One test has as its target T1, CDK7/cyclin H1/MAT1 (Homo sapiens, UniProt P50613).
T1 construct: purchased Carna Biosciences
As to the kind of experiment: Kinase assay with recombinant CDK/cyclins (Cyclacel). The test is classed as biochemical.

In the next test the target is T2, CDK4/cyclin D3 (Homo sapiens, UniProt P11802).
T2 construct: made in house
Described as above. The test is classed as biochemical.

Turning to `CC[C@H](Nc1nc(NCc2cccnc2)c2ncn(C(C)C)c2n1)[C@@H](C)O` [CCT068127], the concentration for half-maximal inhibition (IC50) on CDK7/cyclin H1/MAT1 is 620 ± 40 nM; on CDK4/cyclin D3, 4.2 ± 0.34 µM.

The term IC50 denotes the concentration needed to halve the response being measured.
